The text below walks through data of patent publication US11912569B2, “Method for manufacturing chlorous acid water using raw material obtained by salt electrolysis” (HONBUSANKEI CO., LTD., priority 2016, dated 2024).

The data set is described as follows: Oxidation capability: sodium hypochlorite converted concentration (DPD method). The format is physicochemical. From the text:
The amount of chlorine of sodium hypochlorite is denoted not only as the available chlorine concentration derived by iodometry, but also as the amount of activated chlorine involved in the sterilizing effect contained in sodium hypochlorite, i.e., oxidation capability is denoted as free chlorine. It is well known that the free chlorine and available chlorine concentration of sodium hypochlorite show the same value. […] In this regard, it is necessary to find the oxidation capability of a chlorous acid aqueous solution by the same approach as the free chlorine of sodium hypochlorite. This can be quantified by the following method. […]
A spectrophotometer is used as a measuring apparatus. […] However, when a test is conducted, deviation between the measured wavelength and the wavelength of the reference value is to be ±0.5 nm or less. […] Each of the measured values is to be within a mean value ±0.2 nm or less. For transmittance or absorbance, a transmittance calibration optical filter is used to read out the transmittance at the wavelength of a reference value shown on the test certificate under test conditions in the test certificate appended to each filter. Further, when a test is conducted, deviation between the measured transmittance and the reference transmittance is to be within the upper limit value and the lower limit value of relative precision shown in the test certificate plus 1%. […]

Consider sodium chlorite, for which the oxidation capability amounted to 0.
